Screening results deposited in PubChem BioAssay by several laboratories.
SMARCA2 act: SMARCA2 function activation, primary screen. activation, % at 9.1 µM. MG213 cells, MMTV-luciferase reporter, dexamethasone, overnight. 370,000 compounds, 1% hits; in the data active = activation above about 7.8%;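 note: 0% = vehicle wells and 100% = reference activator wells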
PDI inh: blocks human protein disulfide isomerase activity; 350,000 compounds, 0.052% hits; inhibition, % at 10 µM; PDI insulin aggregation turbidity, A650, 90 min; AID 588391; P07237;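 active = mean inhibition across replicates of 30% or more, whatever share of single replicates reach that level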
NR1D1 modulator: modulators of human Rev-erb alpha DNA binding; P20393; Rev-erbα–FITC-DNA binding, fluorescence polarization, 90 min; activity, % at 10 µM; 370,000 compounds, 0.79% hits;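 active = activity above about 14%, limit read from the data; passing the limit was not always enough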;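 note: 0% = DMSO wells with 35 nM protein and 100% = DMSO wells with 750 nM protein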
GSIS activator: primary screen for activators of insulin secretion dependent on glucose, INS-1E cells, GLuc reporter luminescence | INS-1E GLuc reporter insulin secretion, 2-3 h | 370,000 compounds, 0.61% hits | activation, % at 16.6 µM;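 active = lowest replicate activation of at least 40%, so every replicate reaches that level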;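 note: 0% = median of neutral control wells and 100% = median of IBMX positive control wells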
Yeast UUG start: yeast start codon fidelity modulation; actives 0.13% (n = 350,000); activity score, % at 18.7 µM; S. cerevisiae UUG-firefly luciferase reporter, luminescence/redox ratio;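 active = replicate mean at a twofold rise or more, about +100% in these data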;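 note: firefly luciferase made from a UUG start codon reports start codon fidelity; reporter light over untreated wells divided by growth signal over untreated wells; some hits fall short of that in this replicate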
ERp5 inh: blocks human ERp5 reductase activity on insulin; ERp5 insulin aggregation, absorbance 650 nm, 90 min; AID 651711; inhibition, % at 9.99 µM; 350,000 compounds, 0.05% hits;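 active = mean replicate inhibition above about 25%, with every replicate also reaching it, limit read from the data, passing the limit was not always enough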
The depositor's hits bear a star; x = no result. Shown are actives, neighbours in structure and some others; about 2.1% of the full set was active somewhere.

| SMARCA2 act | PDI inh | NR1D1 modulator | Yeast UUG start | GSIS activator | SMILES | ERp5 inh |
| --- | --- | --- | --- | --- | --- | --- |
| x | x | x | -11 | 15 | O=C(C[C@@H]1CC[C@H](NC(=O)c2ccc3c(c2)OCO3)[C@@H](CO)O1)NCc1ccc(Cl)cc1 | -4 |
| x | x | x | 11 | 34 | COc1ccc(S(=O)(=O)N(C)C[C@@H]2Oc3ncc(C#CCN(C)C)cc3C(=O)N([C@H](C)CO)C[C@@H]2C)cc1 | -2 |
| -8 | 38* | 1 | -10 | -6 | Cc1c(CCC(=O)N[C@@H](CC(C)C)C(=O)O)c(=O)oc2cc3oc4c(c3cc12)CCCC4 | -1 |
| -9 | 1 | 4 | x | -13 | Cc1c(CCC(=O)O)c(=O)oc2cc3oc4c(c3cc12)CCCC4 | 4 |
| x | x | x | -16 | 10 | CC(C)NC(=O)N(C)C[C@H]1Oc2c(NC(=O)Nc3ccccc3)cccc2C(=O)N([C@@H](C)CO)C[C@@H]1C | -3 |
| 7.9* | -4 | 2 | -17 | x | CC(=O)Nc1ccc(Nc2ncnc3c2cnn3-c2cccc(C)c2)cc1 | x |
| -1 | 4 | -1 | 2 | 14 | COc1ccc(OC)c(/C=C/C(=O)OCC(=O)NCc2cccs2)c1 | 7 |
| -3 | 5 | -4 | x | 46* | COc1cc(/C=C/C(=O)OCC(=O)NCc2cccs2)ccc1OC(F)F | x |
| -2 | 0 | 0 | -3 | 61* | COc1cc(/C=C/C(=O)OCC(=O)NCCc2ccccc2)ccc1OC(F)F | -24 |
| x | x | x | 31 | 12 | C[C@@H](O)C#Cc1cnc2c(c1)C(=O)N([C@@H](C)CO)C[C@H](C)[C@H](CN(C)C(=O)Nc1ccc(C(F)(F)F)cc1)O2 | -2 |
| -1 | -8 | 7 | -18 | 42* | O=C(c1ccco1)N(Cc1ccc(Cl)cc1)C1CCS(=O)(=O)C1 (stereo not drawn) | -2 |
| -2 | -1 | -4 | -5 | 57* | Cc1ccc(CN(C(=O)c2cccs2)C2CCS(=O)(=O)C2)cc1 (stereo not drawn) | 4 |
| 0 | 4 | 1 | -2 | 11 | O=C(c1cccs1)N(Cc1ccc(F)cc1)C1CCS(=O)(=O)C1 (stereo not drawn) | 13 |
| 0 | -11 | 3 | 4 | 46* | O=C(c1cccs1)N(Cc1cccc(F)c1)C1CCS(=O)(=O)C1 (stereo not drawn) | -5 |
| 3 | 6 | 0 | -35 | 43* | O=C(c1ccc(Cl)c([N+](=O)[O-])c1)N(Cc1ccco1)C1CCS(=O)(=O)C1 (stereo not drawn) | -8 |
| 2 | x | 2 | x | -4 | COc1ccc(-c2cc(C(=O)O)c3c(C)nn(-c4ccccn4)c3n2)cc1 | x |
| 7.9* | 14 | -1 | -10 | 26 | CCOC(=O)c1cnn(-c2ccccn2)c1N | x |
| 4 | 1 | 10 | -9 | 66* | CCOC(=O)c1cc(-c2ccncc2)nc2c1c(C)nn2-c1ccccn1 | x |
| -1 | -13 | 3 | -11 | x | CCOC(=O)c1cnn(-c2cc(Oc3ccccc3)ncn2)c1N | x |
| x | x | x | -6 | -7 | Cc1noc(C)c1S(=O)(=O)Nc1ccc2c(c1)C(=O)N([C@@H](C)CO)C[C@H](C)[C@H](CN(C)S(=O)(=O)c1cn(C)cn1)O2 | -2 |
| 0 | x | -3 | -19 | 49* | Nc1nc2n(n1)C(c1cccc(Cl)c1)CC(c1ccc(F)cc1)N2 (stereo not drawn) | -3 |
| x | -16 | 7 | -9 | -1 | CCOC(=O)c1oc2ccccc2c1NC(=O)COc1ccc(F)cc1 | -7 |
| -1 | 5 | 4 | -3 | 41* | CCCC(=O)Nc1c(C(=O)OCC)oc2ccccc12 | -1 |
| x | x | x | x | 27 | CO[C@H]1CN(C)C(=O)c2cc(NC(=O)c3cc(C)on3)ccc2OC[C@H](C)N(CC2CC2)C[C@H]1C | 0 |
| 7.9* | -4 | -7 | -11 | 4 | Cc1ccc(NC(=O)CSc2nnc3ccccn23)c(Cl)c1 | 3 |
| 0 | 1 | 2 | -10 | 2 | O=C(CCc1nc2ccccc2c(=O)[nH]1)NNC(=O)c1ccc(Cl)cc1 | -2 |
| -1 | 8 | 1 | -8 | 44* | O=C(CCc1nc2ccccc2c(=O)[nH]1)NNC(=O)c1cccc(Cl)c1 | -6 |
| 5 | -3 | 0 | -13 | 48* | O=C(Nc1cccnc1Cl)C1=NN(c2ccccc2)C(=O)CC1 | 2 |
| 5 | -3 | -1 | -15 | 44* | O=C(NNC1CCN(Cc2ccccc2)CC1)c1ccccc1 | -1 |
| -1 | 3 | -1 | -14 | 48* | Cc1ccsc1/C=N/n1c(-c2ccncc2)n[nH]c1=S | x |

Part of the list above, in markdown.
| compound | SMARCA2 act | PDI inh | NR1D1 modulator | Yeast UUG start | GSIS activator | ERp5 inh |
| --- | --- | --- | --- | --- | --- | --- |
| O=C(C[C@@H]1CC[C@H](NC(=O)c2ccc3c(c2)OCO3)[C@@H](CO)O1)NCc1ccc(Cl)cc1 | x | x | x | -11 | 15 | -4 |
| O=C(CCc1nc2ccccc2c(=O)[nH]1)NNC(=O)c1cccc(Cl)c1 | -1 | 8 | 1 | -8 | 44* | -6 |
| CCOC(=O)c1cnn(-c2cc(Oc3ccccc3)ncn2)c1N | -1 | -13 | 3 | -11 | x | x |
| Cc1c(CCC(=O)O)c(=O)oc2cc3oc4c(c3cc12)CCCC4 | -9 | 1 | 4 | x | -13 | 4 |

Carrying on.
| SMARCA2 act | PDI inh | NR1D1 modulator | Yeast UUG start | GSIS activator | SMILES | ERp5 inh |
| --- | --- | --- | --- | --- | --- | --- |
| 0 | -5 | -7 | x | 78* | CC1CCN(C(=O)CSc2nc(=O)n3cc(Cl)ccc3n2)CC1 | 3 |
| -1 | 6 | 1 | -2 | -5 | Cc1ccn2c(=O)nc(SCC(=O)N3CCC(C)CC3)nc2c1 | -4 |
| -2 | 4 | 5 | -23 | 5 | COCc1nnc(NC(=O)CCCCCN2C(=O)c3ccccc3C2=O)s1 | x |
| 7.8* | 2 | -5 | -3 | 26 | CCCCC(=O)Nc1ccc(C(=O)Nc2nnc(COC)s2)cc1 | 5 |
| -1 | 3 | -1 | 4 | 59* | Cc1cc(NS(=O)(=O)c2ccc(NC(=O)C(C)Oc3ccccc3Cl)cc2)no1 (stereo not drawn) | -2 |
| -1 | 0 | 2 | x | 5 | CC(C)=CC(=O)N1CCC(N2CCC(C(=O)N3CCOCC3)CC2)CC1 | 0 |
| -1 | 1 | 7 | -5 | 49* | CN1CCCCCC1C(=O)N1CCC(N2CCC(C(=O)N3CCOCC3)CC2)CC1 (stereo not drawn) | 7 |
| 0 | 1 | -4 | 7 | 101* | COc1ccc(NC(=O)C2CCCN2S(=O)(=O)c2ccc3c(c2)CC(C)N3C(C)=O)cc1OC (stereo not drawn) | -4 |
| 7.9* | x | -4 | -6 | 16 | COc1ccc(NC(=O)C2CCCN2S(=O)(=O)c2ccc3c(c2)CCC(=O)N3)c(OC)c1 (stereo not drawn) | -7 |
| x | x | x | 6 | x | Cc1ccc(CCNC(=O)C2CCCN2S(=O)(=O)c2ccc3c(c2)CCC(=O)N3)cc1 (stereo not drawn) | x |
| x | x | x | x | -15 | COc1ccc(NC(=O)N(C)C[C@@H]2Oc3ncc(-c4ccccc4)cc3C(=O)N([C@H](C)CO)C[C@@H]2C)cc1 | x |
| x | x | x | 19 | 6 | COc1ccc(CN(C)C[C@@H]2Oc3ccc(NS(C)(=O)=O)cc3CC(=O)N([C@H](C)CO)C[C@H]2C)cc1 | 1 |
| 3 | 1 | 0 | -17 | 57* | COc1cc2[nH]c(-c3ccc(C)cc3)cc(=O)c2cc1OC | 2 |
| 3 | 9 | 13 | -11 | 10 | CCCCC(=O)Nc1cc2nn(-c3ccc(OC)cc3)nc2cc1C | -4 |
| 6 | -3 | 8 | -14 | 108* | CCC(=O)Nc1cc2nn(-c3ccc(OC)cc3)nc2cc1C | x |

PDI inh: what is marked active above.
| SMARCA2 act | PDI inh | NR1D1 modulator | Yeast UUG start | GSIS activator | SMILES | ERp5 inh |
| --- | --- | --- | --- | --- | --- | --- |
| -8 | 38* | 1 | -10 | -6 | Cc1c(CCC(=O)N[C@@H](CC(C)C)C(=O)O)c(=O)oc2cc3oc4c(c3cc12)CCCC4 | -1 |
